Values of other authors, collected in US20220153803A1, “MODIFIED GLUCAGON MOLECUES AND FORMULATIONS WITH OXIDATION RESISTANCE AND METHODS AND KITS OF EMPLOYING THE SAME” (Purdue Research Foundation, priority 2019, published 2022).
Read-outs that look alike come from different tables or passages of the source.

What was measured:
[1] = aqueous

half life (intramuscular dose): 20 to 26 min | half life (nasal powder dose): 30 to 45 min | half life (subcutaneous auto-injector or pre-filled dose): 28 to 35 min
Compound: CSCC[C@H](NC(=O)[C@H](CC(C)C)NC(=O)[C@H](Cc1c[nH]c2ccccc12)NC(=O)[C@H](CCC(N)=O)NC(=O)[C@@H](NC(=O)[C@H](Cc1ccccc1)NC(=O)[C@H](CC(=O)O)NC(=O)[C@H](CCC(N)=O)NC(=O)[C@H](C)NC(=O)[C@H](CCCN=C(N)N)NC(=O)[C@H](CCCN=C(N)N)NC(=O)[C@H](CO)NC(=O)[C@H](CC(=O)O)NC(=O)[C@H](CC(C)C)NC(=O)[C@H](Cc1ccc(O)cc1)NC(=O)[C@H](CCCCN)NC(=O)[C@H](CO)NC(=O)[C@H](Cc1ccc(O)cc1)NC(=O)[C@H](CC(=O)O)NC(=O)[C@H](CO)NC(=O)[C@@H](NC(=O)[C@H](Cc1ccccc1)NC(=O)[C@@H](NC(=O)CNC(=O)[C@H](CCC(N)=O)NC(=O)[C@H](CO)NC(=O)[C@@H](N)Cc1c[nH]cn1)[C@@H](C)O)[C@@H](C)O)C(C)C)C(=O)N[C@@H](CC(N)=O)C(=O)N[C@H](C(=O)O)[C@@H](C)O [native Glucagon, native glucagon]
pH range of solubility [1]: soluble at a pH of 3 or below and at a pH of 10 and above
